Earlier results on two substances are cited in patent US6245563A, “Enhanced activation of natural killer cells using an NK cell activator and hydrogen peroxide scavenger or inhibitor” (priority 2000, dated 2001).

Data set [1] concerns established tumors. The following applies: several animal tumor models; cited from earlier work.
In data set [2] the test system is NK cells. The following applies: cited from earlier work.
For data set [3], the system named is human neoplasia. The following applies: cited from earlier work.

On to IL-2: a T-cell-derived cytokine, for which the “regression of established tumors” value in data set [1] was “can induce the regression of established tumors in several animal tumor models in vivo”. Besides, the “NK cell cytotoxicity in the presence of monocytes, combined with histamine or serotonin” value in data set [2] (IL-2 combined with histamine or serotonin, in vitro) is “augments NK cell cytotoxicity in the presence of monocytes in vitro”. In addition, the “effect on NK cell activity/cytotoxicity” value in data set [2] is recorded as “activates many NK-cell functions”. For the same substance, the clinical anti-tumor outcome in data set [3] (high doses) is reported as “Only a small fraction of patients with metastatic melanoma or renal cell carcinoma show objective regression of tumor burden”. Also, in data set [3] (human, in vivo), the “side effects / toxic reactions in patients” value is reported as “severe side effects, including hypotension, fluid retention”.
Consider IFN-β: interferon-β, for which the “effect on NK cell activity/cytotoxicity” value in data set [2] is given as “enhance NK cell cytotoxicity”.
